The assay has as its target cloned human CRF1 receptors (Homo sapiens, UniProt P34998). Briefly: CRF1 receptor binding assay (inhibition of 125I-ovine-CRF binding to membranes of 293EBNA cells transfected with hCRFR1).
Where [1] appears, read: read-out: IC50 Range* (potency of binding to CRF1 receptor), IC50 ranges, class symbols a-e.
Where [2] appears, read: read-out: IC50 Range* (potency of binding to CRF1 receptor), IC50 ranges as class symbols a-e.
The mark [3] stands for this setting: read-out: IC50 Range (potency of binding to CRF1 receptor), IC50 ranges as class symbols a-e.

Amino acid sequences for entries named in this document (tags omitted). Residues count along the entry.
UniProt P34998, 24-415 limits assumed: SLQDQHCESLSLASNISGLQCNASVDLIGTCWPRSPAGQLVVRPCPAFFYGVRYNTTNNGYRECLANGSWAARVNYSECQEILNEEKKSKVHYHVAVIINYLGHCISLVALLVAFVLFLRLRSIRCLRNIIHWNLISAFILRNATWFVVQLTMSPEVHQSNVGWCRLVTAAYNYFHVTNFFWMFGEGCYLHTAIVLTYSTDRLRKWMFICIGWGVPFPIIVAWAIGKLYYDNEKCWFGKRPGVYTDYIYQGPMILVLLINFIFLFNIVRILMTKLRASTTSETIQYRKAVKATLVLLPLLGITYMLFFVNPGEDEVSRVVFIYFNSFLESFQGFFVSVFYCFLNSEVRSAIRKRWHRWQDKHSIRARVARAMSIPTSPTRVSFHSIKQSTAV

Read-outs that look alike come from different tables or passages of the source.

Regarding `CCCC(CCC)n1c(=O)c(C)nc2c(-c3ccc(Cl)cc3Cl)ncnc21`, under setting [1], the IC50 is 100 to 1000 nM.

Turning to `COCC(C)n1c(=O)c(C)nc2c(-c3ccc(C(F)(F)F)cc3Cl)ccnc21` (stereo not drawn), the IC50 under setting [1] fell in the range of 10 to 100 nM.

Turning to `CCC(COC)n1c(=O)c(C)nc2c(-c3ccc(OC)cc3C)ccnc21` (stereo not drawn), under setting [1], the IC50 was 10 to 100 nM.

For the compound `CCCC(C)n1c(=O)c(C)nc2c(-c3ccc(OC(F)(F)F)cc3Cl)ccnc21` (stereo not drawn), the IC50 under setting [2] lay in the range of 100 to 1000 nM.

Turning to `Cc1nc2c(-c3ccc(Cl)cc3Cl)ncnc2n(C(C2CC2)C2CC2)c1=O`, the concentration for half-maximal inhibition (IC50) under setting [3] was in the range of 10 to 100 nM.

On to `COCC(C)n1c(=O)c(C)nc2c(-c3ccc(OC)cc3C)ccnc21` (stereo not drawn), for which the IC50 under setting [1] was in the range of 100 to 1000 nM.

Consider `COCC(C)n1c(=O)c(C)nc2c(-c3ccc(OC(F)F)cc3Cl)ccnc21` (stereo not drawn), for which the IC50 under setting [1] was 10 to 100 nM.

Consider `CCC(COC)n1c(=O)c(C)nc2c(-c3ccc(OC(F)F)cc3Cl)ccnc21` (stereo not drawn), for which, under setting [1], the IC50 is 1 to 10 nM.

Regarding `CCC(COC)n1c(=O)c(C)nc2c(-c3ccc(C(F)(F)F)cc3Cl)ccnc21` (stereo not drawn), the IC50 under setting [1] lay in the range of 10 to 100 nM.

Regarding `CCC(C1CC1)n1c(=O)c(C)nc2c(-c3ccc(OC)cc3Cl)ncnc21` (stereo not drawn), the concentration for half-maximal inhibition (IC50) under setting [1] fell in the range of 10 to 100 nM.

In the case of `CCC(C1CC1)n1c(=O)c(C)nc2c(-c3ccc(OC)nc3C)ccnc21` (stereo not drawn), the IC50 under setting [1] fell in the range of 10 to 100 nM.

Regarding `COc1ccc(-c2ccnc3c2nc(C)c(=O)n3C(C)C2CCC2)c(Cl)c1` (stereo not drawn), the IC50 under setting [1] lay within 1 to 10 nM.

As to `CCC(C1CC1)n1c(=O)c(C)nc2c(-c3ccc(Cl)cc3Cl)ccnc21` (stereo not drawn), under setting [1], the IC50 was in the range of 1 to 10 nM.

For the compound `CCC(C1CC1)n1c(=O)c(C)nc2c(-c3ccc(OC)cc3Cl)ccnc21` (stereo not drawn), the half-maximal inhibitory concentration (IC50) under setting [1] is under 1 nM.

Turning to `CCC(C1CCC1)n1c(=O)c(C)nc2c(-c3ccc(OC)cc3C)ccnc21` (stereo not drawn), the IC50 under setting [1] was 10 to 100 nM.

On to `CCC(C1CC1)n1c(=O)c(C)nc2c(-c3cnc(OC)nc3OC)ccnc21` (stereo not drawn), for which the half-maximal inhibitory concentration (IC50) under setting [2] was over 1000 nM.

For the compound `CCC(C1CC1)n1c(=O)c(C)nc2c(-c3ccc(OC(F)(F)F)cc3Cl)ccnc21` (stereo not drawn), under setting [2], the IC50 was in the range of 10 to 100 nM.

As to `COCC(C)n1c(=O)c(C)nc2c(-c3ccc(Cl)cc3Cl)ncnc21` (stereo not drawn), the IC50 under setting [1] lay in the range of 100 to 1000 nM.

For the compound `CCC(C1CC1)n1c(=O)c(C)nc2c(-c3cc(C)c(OC)cc3C)ncnc21` (stereo not drawn), the IC50 under setting [3] lay in the range of 10 to 100 nM.

Regarding `CCC(COC)n1c(=O)c(C)nc2c(-c3ccc(OC)cc3Cl)ccnc21` (stereo not drawn), the IC50 under setting [1] lay within 10 to 100 nM.

Take `COCC(C)n1c(=O)c(C)nc2c(-c3ccc(OC)nc3C)ccnc21` (stereo not drawn): the IC50 under setting [1] was in the range of 100 to 1000 nM.

For the compound `COCC(C)n1c(=O)c(C)nc2c(-c3ccc(OC(F)(F)F)cc3Cl)ncnc21` (stereo not drawn), under setting [3], the IC50 lay within 10 to 100 nM.

For the compound `CCC(COC)n1c(=O)c(C)nc2c(-c3cc(F)c(OC)cc3C)ccnc21` (stereo not drawn), under setting [1], the 50% inhibitory concentration (IC50) lay in the range of 1 to 10 nM.

In the case of `COCC(C)n1c(=O)c(C)nc2c(-c3cnc(OC)nc3OC)ccnc21` (stereo not drawn), under setting [2], the IC50 was over 1000 nM.

For `CCC(C1CC1)n1c(=O)c(C)nc2c(-c3ccc(OC(F)F)cc3Cl)ccnc21` (stereo not drawn), under setting [1], the IC50 fell in the range of 1 to 10 nM.

For `CCC(C1CC1)n1c(=O)c(C)nc2c(-c3ccc(C(F)(F)F)cc3Cl)ccnc21` (stereo not drawn), the IC50 under setting [1] lay in the range of 10 to 100 nM.

As to `Cc1nc2c(-c3cc(F)c(N(C)C)cc3Cl)ccnc2n(C(C)C2CC2)c1=O` (stereo not drawn), the IC50 under setting [2] fell in the range of 1 to 10 nM.

Regarding `COCC(C)n1c(=O)c(C)nc2c(-c3ccc(OC(F)(F)F)cc3Cl)ccnc21` (stereo not drawn), under setting [2], the IC50 is 100 to 1000 nM.

For `COc1ccc(-c2ncnc3c2nc(C)c(=O)n3C(C)C2CC2)c(Cl)c1` (stereo not drawn), the IC50 under setting [1] was 10 to 100 nM.

Take `CCC(C1CCC1)n1c(=O)c(C)nc2c(-c3ccc(Cl)cc3Cl)ncnc21` (stereo not drawn): the IC50 under setting [1] lay within 10 to 100 nM.

On to `CCCC(C)n1c(=O)c(C)nc2c(-c3cc(C)c(OC)cc3C)ccnc21` (stereo not drawn), for which the IC50 under setting [2] was in the range of 10 to 100 nM.

In the case of `CCC(C1CC1)n1c(=O)c(C)nc2c(-c3ccc(OC)cc3C)ccnc21` (stereo not drawn), the IC50 under setting [1] was in the range of 10 to 100 nM.

In the case of `COc1ccc(-c2ccnc3c2nc(C)c(=O)n3C(C2CC2)C2CC2)c(C)c1`, the concentration for half-maximal inhibition (IC50) under setting [1] was in the range of 1 to 10 nM.

Turning to `CCC(C1CC1)n1c(=O)c(C)nc2c(-c3cc(F)c(OC)cc3C)ccnc21` (stereo not drawn), the IC50 under setting [1] was 1 to 10 nM.

Regarding `CCC(COC)n1c(=O)c(C)nc2c(-c3ccc(OC)nc3C)ncnc21` (stereo not drawn), the IC50 under setting [1] was over 1000 nM.

Regarding `CCC(C1CC1)n1c(=O)c(C)nc2c(-c3ccc(OC)nc3C)ncnc21` (stereo not drawn), under setting [1], the IC50 is 100 to 1000 nM.

For `CCCC(CCC)n1c(=O)c(C)nc2c(-c3ccc(OC)nc3C)ccnc21`, under setting [1], the half-maximal inhibitory concentration (IC50) was in the range of 10 to 100 nM.

As to `COCC(C)n1c(=O)c(C)nc2c(-c3ccc(OC)cc3Cl)ncnc21` (stereo not drawn), the IC50 under setting [1] lay within 100 to 1000 nM.

For the compound `CCC(C1CC1)n1c(=O)c(C)nc2c(-c3ccc(Cl)cc3Cl)ncnc21` (stereo not drawn), the IC50 under setting [1] fell in the range of 10 to 100 nM.

These data come from US7067658B2, “Pyridino and pyrimidino pyrazinones” (Bristol-Myers Squibb Company, priority 2002, dated 2006).
